Assay results from patent US11071788B2, “Antibody drug conjugates of kinesin spindel protein (KSP) inhibitors with antiB7H3-antibodies” (BAYER PHARMA AKTIENGESELLSCHAFT, priority 2015, dated 2021).
Residue numbers refer to the chain shown, from its start.

What was measured:
human B7H2 = molecular target: T1, human B7H2 (Homo sapiens (Human), UniProt O75144); assay: ELISA binding of anti-B7H3 antibodies to human B7H2
T1 sequence (O75144 whole entry, looked up): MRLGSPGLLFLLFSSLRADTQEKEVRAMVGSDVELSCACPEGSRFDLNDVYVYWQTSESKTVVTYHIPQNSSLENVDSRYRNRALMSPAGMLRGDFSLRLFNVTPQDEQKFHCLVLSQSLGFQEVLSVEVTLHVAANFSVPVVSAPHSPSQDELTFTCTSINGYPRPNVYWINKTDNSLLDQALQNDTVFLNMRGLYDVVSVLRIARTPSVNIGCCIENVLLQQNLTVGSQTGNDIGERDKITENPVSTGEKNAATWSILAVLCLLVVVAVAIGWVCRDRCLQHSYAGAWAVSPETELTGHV
Method: (§1) TPP6497, TPP6499, TPP6501, TPP6502 and TPP6515 were synthesized as described above. Binding of the antibodies to human B7H3 and to human B7H2 and B7H4 was characterized using ELISAs. Black 384-well Maxisorp plates (Nunc) were coated with anti-human IgG Fc (Sigma, 12316; 1:440 dilution) in single coating buffer (Candor) for one hour at 37° C. After washing once with PSB, 0.05% Tween, the plate was blocked with 100% Smart Block (Candor) for one hour at 37° C. The antibody to be tested was then attached to the plate (2 μg/ml IgG in PBS, 0.05% Tween, 10% Smart Block; 1 hour, room temperature). After washing three times, the plate was incubated with the antigen in question or with buffer alone (37 ng/ml in PBS, 0.05% Tween, 10% Smart block; B7H2: RnDSystems, 8206-B7; B7H3: RnDSystems, 2318-B3-050/CF; B7H4. RnDSystems, 6576-B7; 1 hour, room temperature). After washing three times, the plate was incubated with an anti-His HRP antibody (Novagen, 71840-3; 1:10000 dilution; 1 hour, room temperature). After washing three times, the plate was incubated with Amplex Red for 30 minutes and then read.

human B7H3 = molecular target: T2, human B7H3 (Homo sapiens (Human), UniProt Q5ZPR3); assay: ELISA binding of anti-B7H3 antibodies to human B7H3
T2 sequence (Q5ZPR3 whole entry, looked up): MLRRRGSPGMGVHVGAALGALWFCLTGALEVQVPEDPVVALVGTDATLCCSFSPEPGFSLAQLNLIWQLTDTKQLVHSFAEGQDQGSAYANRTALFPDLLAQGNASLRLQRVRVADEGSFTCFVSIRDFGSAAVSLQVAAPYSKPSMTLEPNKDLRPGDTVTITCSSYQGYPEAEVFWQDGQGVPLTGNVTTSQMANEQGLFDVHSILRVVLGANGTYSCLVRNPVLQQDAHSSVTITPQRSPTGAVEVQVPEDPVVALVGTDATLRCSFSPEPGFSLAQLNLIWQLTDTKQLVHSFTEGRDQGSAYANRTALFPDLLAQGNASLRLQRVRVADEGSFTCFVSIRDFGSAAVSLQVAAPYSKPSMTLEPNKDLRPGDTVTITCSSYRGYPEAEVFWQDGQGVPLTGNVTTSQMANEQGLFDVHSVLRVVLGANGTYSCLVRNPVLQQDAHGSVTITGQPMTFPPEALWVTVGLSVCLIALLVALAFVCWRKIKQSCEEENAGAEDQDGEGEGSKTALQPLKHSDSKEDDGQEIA
Method: as §1

human B7H4 = molecular target: T3, human B7H4 (Homo sapiens (Human), UniProt Q7Z7D3); assay: ELISA binding of anti-B7H3 antibodies to human B7H4
T3 sequence (Q7Z7D3 whole entry, looked up): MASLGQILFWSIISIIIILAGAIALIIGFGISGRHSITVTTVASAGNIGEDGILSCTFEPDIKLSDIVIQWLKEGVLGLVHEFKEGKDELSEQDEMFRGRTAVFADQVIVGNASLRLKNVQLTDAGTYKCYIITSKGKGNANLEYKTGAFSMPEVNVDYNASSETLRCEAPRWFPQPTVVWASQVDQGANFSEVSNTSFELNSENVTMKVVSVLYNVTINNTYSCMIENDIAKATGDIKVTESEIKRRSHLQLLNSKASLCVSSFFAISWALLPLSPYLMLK
Method: as §1

B1: TPP6499 (antibody)
heavy: EVQLLESGGGLVQPGGSLRLSCAASGFTFRDFYMNWIRQAPGKGLEWVSSISASGKYTYYADSVKGRFTISRDNSKNTLYLQMNSLRAEDTAVYYCAREWGYCTNDVCRNWFDPWGQGTLVTVSSASTKGPSVFPLAPSSKSTSGGTAALGCLVKDYFPEPVTVSWNSGALTSGVHTFPAVLQSSGLYSLSSVVTVPSSSLGTQTYICNVNHKPSNTKVDKKV[left out - human IgG1 Fc]
light: QSVLTQPPSASGTPGQRVTISCSGGYSNVGGNNVNWYQQLPGTAPKLLIYGNSNRPSGVPDRFSGSKSGTSASLAISGLRSEDEADYYCQSYDSSLSGSVFGGGTKLTVLGQPKAAPSVTLFPPSSEELQANKATLVCLISDFYPGAVTVAWKADSSPVKAGVETTTPSKQSNNKYAASSYLSLTPEQWKSHRSYSCQVTHEGSTVEKTVAPTECS
modifications: TPP-6499 Heavy Chain (IgG); TPP-6499 Light Chain (IgG)
Binding to B7H2 (ELISA, in words) (human B7H2): not B7H2 or B7H4
Binding to B7H3 (ELISA, in words) (human B7H3): bind B7H3
Binding to B7H4 (ELISA, in words) (human B7H4): not B7H2 or B7H4

B2: TPP6502 (antibody)
heavy: EVQLLESGGGLVQPGGSLRLSCAASGFTFSTYGMHWVRQAPGKGLEWVSAISGSGGSTYYADSVKGRFTISRDNSKNTLYLQMNSLRAEDTAVYYCTRGYYYYGMDVWGQGTLVTVSSASTKGPSVFPLAPSSKSTSGGTAALGCLVKDYFPEPVTVSWNSGALTSGVHTFPAVLQSSGLYSLSSVVTVPSSSLGTQTYICNVNHKPSNTKVDKKV[left out - human IgG1 Fc]
light: B1 light with Y26S, V29I, G31S, N33P, N54K, S99W
modifications: TPP-6502 Heavy Chain (IgG); TPP-6502 Light Chain (IgG)
Binding to B7H2 (ELISA, in words) (human B7H2): not B7H2 or B7H4
Binding to B7H3 (ELISA, in words) (human B7H3): bind B7H3
Binding to B7H4 (ELISA, in words) (human B7H4): not B7H2 or B7H4

B3: TPP6515 (antibody)
heavy: B2 heavy with T31S, A40V, S57T, T97A, Y100G, Y102H, Y103F, G104L, M105F, V107Y
light: QSVLTQPPSASGTPGQRVTISCSGSSSNIGSNTVNWYQQLPGTAPKLLIYRNDQRLLGVPDRFSGSKSGTSASLAISGLRSEDEADYYCQSYDSSLSGWVFGGGTKLTVLGQPKAAPSVTLFPPSSEELQANKATLVCLISDFYPGAVTVAWKADSSPVKAGVETTTPSKQSNNKYAASSYLSLTPEQWKSHRSYSCQVTHEGSTVEKTVAPTECS
modifications: TPP-6515 Heavy Chain (IgG); TPP-6515 Light Chain (IgG)
Binding to B7H2 (ELISA, in words) (human B7H2): not B7H2 or B7H4
Binding to B7H3 (ELISA, in words) (human B7H3): bind B7H3
Binding to B7H4 (ELISA, in words) (human B7H4): not B7H2 or B7H4
